Columns and labels:
AsPC-1 = experiment: Cell growth inhibition, AsPC-1 (CCK-8); settings: read-out: Cell growth inhibition GI50, AsPC-1, 72 hours
HCI-H460 = experiment: Cell growth inhibition, HCI-H460 (CCK-8); settings: read-out: Cell growth inhibition GI50, HCI-H460, 72 hours
MDA-MB-231 = experiment: Cell growth inhibition, MDA-MB-231 (CCK-8); settings: read-out: Cell growth inhibition GI50, MDA-MB-231, 72 hours
PKACG = PKACG (Homo sapiens, UniProt P22612); experiment: Kinase panel inhibition, PKACG; settings: 1 μM
full kinase panel [1] = biological target: full kinase panel (Homo sapiens, UniProt Q16620); experiment: Full kinase panel inhibition by Example compounds 8 and 51 at 1 μM (Tables 11 to 14; kinase named in each table line); settings: TRKB
full kinase panel [2] = biological target: full kinase panel (Homo sapiens, UniProt Q08345); experiment: as above; settings: DDR1
full kinase panel [3] = biological target: full kinase panel (Homo sapiens, UniProt O60674); experiment: as above; settings: JAK2
full kinase panel [4] = biological target: full kinase panel (Homo sapiens, UniProt P21802); experiment: as above; settings: FGFR2
full kinase panel [5] = biological target: full kinase panel (Homo sapiens, UniProt P29323); experiment: as above; settings: EPHB2
full kinase panel [6] = biological target: full kinase panel (Homo sapiens, UniProt P07947); experiment: as above; settings: YES/YES1
full kinase panel [7] = biological target: full kinase panel (Homo sapiens, UniProt Q16539); experiment: as above; settings: P38A/MAPK14
full kinase panel [8] = biological target: full kinase panel (Homo sapiens, UniProt Q15418); experiment: as above; settings: RSK1
full kinase panel [9] = biological target: full kinase panel (Homo sapiens, UniProt P06239); experiment: as above; settings: LCK
full kinase panel [10] = biological target: full kinase panel (Homo sapiens, UniProt O15146); experiment: as above; settings: MUSK
full kinase panel [11] = biological target: full kinase panel (Homo sapiens, UniProt Q9UKE5); experiment: as above; settings: TNIK
full kinase panel [12] = biological target: full kinase panel (Homo sapiens, UniProt P42685); experiment: as above; settings: FRK/PTK5
full kinase panel [13] = biological target: full kinase panel (Homo sapiens, UniProt Q9H3Y6); experiment: as above; settings: SRMS
full kinase panel [14] = biological target: full kinase panel (Homo sapiens, UniProt P23458); experiment: as above; settings: JAK1
full kinase panel [15] = biological target: full kinase panel (Homo sapiens, UniProt O75716); experiment: as above; settings: STK16
full kinase panel [16] = biological target: full kinase panel (Homo sapiens, UniProt P16234); experiment: as above; settings: PDGFRA
full kinase panel [17] = biological target: full kinase panel (Homo sapiens, UniProt P29317); experiment: as above; settings: EPHA2
full kinase panel [18] = biological target: full kinase panel (Homo sapiens, UniProt Q96SB4); experiment: as above; settings: SRPK1
full kinase panel [19] = biological target: full kinase panel (Homo sapiens, UniProt Q05397); experiment: as above; settings: FAK/PTK2
full kinase panel [20] = biological target: full kinase panel (Homo sapiens, UniProt P08922); experiment: as above; settings: ROS/ROS1
full kinase panel [21] = biological target: full kinase panel (Homo sapiens, UniProt P12931); experiment: as above; settings: C-SRC
full kinase panel [22] = biological target: full kinase panel (Homo sapiens, UniProt P09619); experiment: as above; settings: PDGFRB
PYK2 = PYK2 (Homo sapiens, UniProt Q14289); experiment: Kinase panel inhibition, PYK2; settings: 1 μM
RAF1 = RAF1 (Homo sapiens, UniProt P04049); experiment: Kinase panel inhibition, RAF1; settings: 1 μM

By UniProt entry, the sequences of proteins in these tests, tags left out. Residues count along the entry.
UniProt Q08345, 19-913 limits assumed: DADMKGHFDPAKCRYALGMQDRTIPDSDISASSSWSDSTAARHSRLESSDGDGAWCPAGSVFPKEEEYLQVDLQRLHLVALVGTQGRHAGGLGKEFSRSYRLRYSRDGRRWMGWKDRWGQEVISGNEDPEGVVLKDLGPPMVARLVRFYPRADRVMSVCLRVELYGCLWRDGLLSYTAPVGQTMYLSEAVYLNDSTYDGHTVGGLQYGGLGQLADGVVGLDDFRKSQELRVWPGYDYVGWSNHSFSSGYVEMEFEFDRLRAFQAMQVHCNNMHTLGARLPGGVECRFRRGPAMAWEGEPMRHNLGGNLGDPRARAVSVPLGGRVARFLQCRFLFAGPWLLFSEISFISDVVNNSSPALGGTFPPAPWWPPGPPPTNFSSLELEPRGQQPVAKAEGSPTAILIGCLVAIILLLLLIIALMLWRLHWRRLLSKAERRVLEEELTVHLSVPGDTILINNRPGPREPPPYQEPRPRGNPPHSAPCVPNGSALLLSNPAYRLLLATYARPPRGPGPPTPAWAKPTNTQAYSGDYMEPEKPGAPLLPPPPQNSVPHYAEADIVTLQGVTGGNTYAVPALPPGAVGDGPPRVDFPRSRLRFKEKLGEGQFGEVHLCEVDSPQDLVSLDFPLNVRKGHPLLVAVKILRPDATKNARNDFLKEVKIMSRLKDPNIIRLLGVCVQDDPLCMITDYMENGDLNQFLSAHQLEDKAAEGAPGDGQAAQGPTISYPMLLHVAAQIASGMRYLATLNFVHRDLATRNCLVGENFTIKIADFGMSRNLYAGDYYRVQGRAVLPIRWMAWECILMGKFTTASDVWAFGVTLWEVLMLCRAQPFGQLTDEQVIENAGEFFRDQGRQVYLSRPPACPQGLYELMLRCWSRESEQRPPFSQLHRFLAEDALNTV
UniProt P29323, 19-1055 limits assumed: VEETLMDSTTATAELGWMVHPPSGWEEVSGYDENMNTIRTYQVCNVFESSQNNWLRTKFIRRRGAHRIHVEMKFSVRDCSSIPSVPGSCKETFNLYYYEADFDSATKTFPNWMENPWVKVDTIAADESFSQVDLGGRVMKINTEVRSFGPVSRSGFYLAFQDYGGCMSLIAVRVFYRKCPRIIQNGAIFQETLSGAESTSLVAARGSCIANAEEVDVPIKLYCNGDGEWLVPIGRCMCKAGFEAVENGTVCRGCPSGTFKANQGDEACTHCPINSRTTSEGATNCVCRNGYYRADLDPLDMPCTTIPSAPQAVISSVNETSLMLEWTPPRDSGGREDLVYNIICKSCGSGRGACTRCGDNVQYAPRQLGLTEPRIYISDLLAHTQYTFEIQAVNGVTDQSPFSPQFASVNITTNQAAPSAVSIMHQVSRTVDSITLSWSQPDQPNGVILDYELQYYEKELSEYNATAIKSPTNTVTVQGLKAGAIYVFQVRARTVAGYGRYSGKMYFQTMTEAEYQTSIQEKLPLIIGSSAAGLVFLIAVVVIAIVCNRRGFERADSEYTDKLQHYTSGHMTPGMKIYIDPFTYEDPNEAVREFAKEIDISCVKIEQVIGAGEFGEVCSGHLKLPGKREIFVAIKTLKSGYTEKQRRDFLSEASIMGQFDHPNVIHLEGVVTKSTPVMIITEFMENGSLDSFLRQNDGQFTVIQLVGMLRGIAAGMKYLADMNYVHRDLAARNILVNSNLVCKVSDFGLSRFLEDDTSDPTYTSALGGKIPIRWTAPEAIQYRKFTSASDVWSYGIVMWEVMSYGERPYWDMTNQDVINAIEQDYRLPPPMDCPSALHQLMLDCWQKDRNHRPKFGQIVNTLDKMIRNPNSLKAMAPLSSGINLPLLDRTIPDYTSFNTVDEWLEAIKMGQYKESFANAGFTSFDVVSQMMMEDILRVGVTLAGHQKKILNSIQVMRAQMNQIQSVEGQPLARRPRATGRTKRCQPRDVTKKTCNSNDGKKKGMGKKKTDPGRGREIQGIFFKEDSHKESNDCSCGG
UniProt Q15418, whole entry: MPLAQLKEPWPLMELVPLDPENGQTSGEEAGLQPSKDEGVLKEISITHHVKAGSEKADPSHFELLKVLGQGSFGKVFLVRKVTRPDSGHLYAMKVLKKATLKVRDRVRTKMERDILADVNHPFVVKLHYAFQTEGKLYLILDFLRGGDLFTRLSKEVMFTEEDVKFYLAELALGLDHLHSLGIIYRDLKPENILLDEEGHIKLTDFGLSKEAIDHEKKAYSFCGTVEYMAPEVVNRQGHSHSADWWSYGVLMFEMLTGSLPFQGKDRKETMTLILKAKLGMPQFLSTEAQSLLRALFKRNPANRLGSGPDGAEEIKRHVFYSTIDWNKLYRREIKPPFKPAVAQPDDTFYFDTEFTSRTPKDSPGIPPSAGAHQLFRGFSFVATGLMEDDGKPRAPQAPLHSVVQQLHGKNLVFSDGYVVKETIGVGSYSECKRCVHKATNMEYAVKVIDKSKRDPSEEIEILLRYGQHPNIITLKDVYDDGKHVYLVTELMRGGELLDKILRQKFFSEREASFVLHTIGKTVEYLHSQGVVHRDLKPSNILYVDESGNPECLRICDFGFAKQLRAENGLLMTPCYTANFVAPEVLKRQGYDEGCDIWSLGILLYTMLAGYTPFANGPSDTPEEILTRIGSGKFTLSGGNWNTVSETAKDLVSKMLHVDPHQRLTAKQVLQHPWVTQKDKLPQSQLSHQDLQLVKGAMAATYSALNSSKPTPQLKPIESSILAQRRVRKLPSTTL
UniProt P23458, whole entry: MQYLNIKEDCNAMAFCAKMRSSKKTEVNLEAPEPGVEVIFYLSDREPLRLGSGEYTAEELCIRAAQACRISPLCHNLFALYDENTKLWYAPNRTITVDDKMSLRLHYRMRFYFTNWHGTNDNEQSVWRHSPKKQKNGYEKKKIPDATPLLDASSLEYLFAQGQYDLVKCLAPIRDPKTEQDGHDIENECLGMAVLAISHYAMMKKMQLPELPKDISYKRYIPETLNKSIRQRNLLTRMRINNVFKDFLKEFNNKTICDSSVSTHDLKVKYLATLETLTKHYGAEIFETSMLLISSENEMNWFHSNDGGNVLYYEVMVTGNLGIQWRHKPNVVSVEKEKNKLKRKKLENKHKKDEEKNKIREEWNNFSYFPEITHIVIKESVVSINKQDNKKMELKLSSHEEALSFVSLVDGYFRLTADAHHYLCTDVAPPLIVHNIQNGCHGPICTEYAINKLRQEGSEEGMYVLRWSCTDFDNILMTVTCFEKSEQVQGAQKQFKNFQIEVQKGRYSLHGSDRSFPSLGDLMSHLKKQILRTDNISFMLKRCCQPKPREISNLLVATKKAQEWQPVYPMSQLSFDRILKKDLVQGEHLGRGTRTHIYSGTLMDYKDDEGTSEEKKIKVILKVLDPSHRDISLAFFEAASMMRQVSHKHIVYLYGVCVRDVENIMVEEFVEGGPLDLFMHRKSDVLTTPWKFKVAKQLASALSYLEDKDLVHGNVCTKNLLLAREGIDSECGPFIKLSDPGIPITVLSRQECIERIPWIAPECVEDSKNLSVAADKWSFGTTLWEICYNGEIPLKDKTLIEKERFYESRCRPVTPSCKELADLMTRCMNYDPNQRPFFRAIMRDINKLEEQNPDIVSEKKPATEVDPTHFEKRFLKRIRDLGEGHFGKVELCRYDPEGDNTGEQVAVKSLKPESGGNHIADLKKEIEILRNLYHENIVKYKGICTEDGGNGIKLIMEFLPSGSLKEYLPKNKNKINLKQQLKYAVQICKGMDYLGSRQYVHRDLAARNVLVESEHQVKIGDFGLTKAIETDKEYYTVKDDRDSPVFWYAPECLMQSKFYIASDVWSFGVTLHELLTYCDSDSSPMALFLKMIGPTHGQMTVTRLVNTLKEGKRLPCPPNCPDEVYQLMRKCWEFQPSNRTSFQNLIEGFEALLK
UniProt P29317, 24-976 limits assumed: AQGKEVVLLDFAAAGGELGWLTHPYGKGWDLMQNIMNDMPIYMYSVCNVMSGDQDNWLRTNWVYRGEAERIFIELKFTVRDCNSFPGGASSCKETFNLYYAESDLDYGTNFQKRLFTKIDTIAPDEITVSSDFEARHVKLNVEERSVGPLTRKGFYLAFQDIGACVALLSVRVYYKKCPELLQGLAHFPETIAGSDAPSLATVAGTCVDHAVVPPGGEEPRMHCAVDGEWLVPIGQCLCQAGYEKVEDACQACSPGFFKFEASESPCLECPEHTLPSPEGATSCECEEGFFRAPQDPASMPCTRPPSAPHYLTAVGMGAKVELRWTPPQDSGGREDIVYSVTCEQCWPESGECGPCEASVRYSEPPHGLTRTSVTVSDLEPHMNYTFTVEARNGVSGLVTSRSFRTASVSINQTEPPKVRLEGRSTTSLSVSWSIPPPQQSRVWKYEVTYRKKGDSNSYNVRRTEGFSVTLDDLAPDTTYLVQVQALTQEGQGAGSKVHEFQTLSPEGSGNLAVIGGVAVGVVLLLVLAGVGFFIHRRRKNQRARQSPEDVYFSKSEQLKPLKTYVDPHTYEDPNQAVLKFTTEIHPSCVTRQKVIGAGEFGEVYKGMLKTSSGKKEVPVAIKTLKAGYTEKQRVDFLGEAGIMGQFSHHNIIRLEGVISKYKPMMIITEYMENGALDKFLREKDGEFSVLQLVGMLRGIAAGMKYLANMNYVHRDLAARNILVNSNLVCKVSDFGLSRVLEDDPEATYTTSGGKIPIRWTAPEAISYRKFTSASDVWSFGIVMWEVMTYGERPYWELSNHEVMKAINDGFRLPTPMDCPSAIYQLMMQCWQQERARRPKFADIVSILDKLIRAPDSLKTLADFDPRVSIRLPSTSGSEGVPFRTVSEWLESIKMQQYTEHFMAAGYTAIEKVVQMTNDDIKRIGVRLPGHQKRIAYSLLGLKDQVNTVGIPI
UniProt Q14289, whole entry: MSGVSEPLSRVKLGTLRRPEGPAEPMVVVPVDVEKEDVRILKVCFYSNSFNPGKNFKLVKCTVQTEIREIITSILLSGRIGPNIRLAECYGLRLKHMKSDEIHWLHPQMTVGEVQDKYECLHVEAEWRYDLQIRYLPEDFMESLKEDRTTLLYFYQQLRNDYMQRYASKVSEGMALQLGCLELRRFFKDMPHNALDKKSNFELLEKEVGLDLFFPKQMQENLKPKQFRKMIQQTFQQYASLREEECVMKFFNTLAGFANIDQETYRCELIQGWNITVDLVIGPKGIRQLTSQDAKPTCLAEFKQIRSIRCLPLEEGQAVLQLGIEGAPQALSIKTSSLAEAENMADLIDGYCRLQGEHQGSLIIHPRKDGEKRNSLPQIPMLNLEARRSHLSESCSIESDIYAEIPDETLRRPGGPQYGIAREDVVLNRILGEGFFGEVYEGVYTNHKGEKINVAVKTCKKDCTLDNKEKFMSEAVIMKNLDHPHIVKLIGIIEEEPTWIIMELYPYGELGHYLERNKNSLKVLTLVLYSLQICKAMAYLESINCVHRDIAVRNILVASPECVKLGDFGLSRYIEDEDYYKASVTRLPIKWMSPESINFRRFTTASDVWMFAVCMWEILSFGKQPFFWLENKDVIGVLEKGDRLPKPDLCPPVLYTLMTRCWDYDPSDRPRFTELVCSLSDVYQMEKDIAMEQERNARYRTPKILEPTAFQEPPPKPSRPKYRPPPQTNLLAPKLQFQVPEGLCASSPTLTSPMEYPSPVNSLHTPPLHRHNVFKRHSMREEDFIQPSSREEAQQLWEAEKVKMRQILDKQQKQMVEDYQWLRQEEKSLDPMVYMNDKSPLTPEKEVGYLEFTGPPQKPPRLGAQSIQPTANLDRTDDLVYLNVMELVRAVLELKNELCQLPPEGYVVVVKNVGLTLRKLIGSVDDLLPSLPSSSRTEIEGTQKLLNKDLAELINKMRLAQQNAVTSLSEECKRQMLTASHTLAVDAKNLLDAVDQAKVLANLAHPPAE
UniProt P04049, whole entry: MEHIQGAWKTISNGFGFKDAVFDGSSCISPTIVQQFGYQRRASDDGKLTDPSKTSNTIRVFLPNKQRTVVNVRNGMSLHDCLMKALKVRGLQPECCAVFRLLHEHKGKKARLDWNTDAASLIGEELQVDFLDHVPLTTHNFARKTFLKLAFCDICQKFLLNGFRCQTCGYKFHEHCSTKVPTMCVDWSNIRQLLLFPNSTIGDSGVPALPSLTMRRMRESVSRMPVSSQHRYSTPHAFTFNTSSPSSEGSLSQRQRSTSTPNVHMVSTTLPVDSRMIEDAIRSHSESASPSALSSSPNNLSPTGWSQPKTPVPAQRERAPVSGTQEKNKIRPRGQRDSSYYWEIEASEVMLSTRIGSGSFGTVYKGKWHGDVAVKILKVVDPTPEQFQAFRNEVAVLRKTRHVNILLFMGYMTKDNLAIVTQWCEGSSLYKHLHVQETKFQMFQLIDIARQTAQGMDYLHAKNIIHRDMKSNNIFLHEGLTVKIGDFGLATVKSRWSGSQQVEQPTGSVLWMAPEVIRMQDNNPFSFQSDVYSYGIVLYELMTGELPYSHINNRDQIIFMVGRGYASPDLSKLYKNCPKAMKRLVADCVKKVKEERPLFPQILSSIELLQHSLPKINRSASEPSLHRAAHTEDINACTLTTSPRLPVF

For `Cc1cn(-c2cc(C(=O)Nc3ccc(C)c(N4Cc5cnc(NC6CC6)nc5C5(CC5)C4=O)c3)cc(C(F)(F)F)c2)cn1`, the GI50 (AsPC-1) was < 5 µM, the GI50 (HCI-H460) was < 5 µM and the GI50 (MDA-MB-231) was < 5 µM. For the same compound, the “kinase inhibited by 60% or more” value (PKACG) was “◯ (residual enzyme activity values were 40% or less, i.e., inhibited by 60% or more)”, the “kinase inhibition (residual enzyme activity)” value (full kinase panel [1]) was “◯ (residual enzyme activity values were 40% or less, i.e., inhibited by 60% or more)” and the “kinase inhibition (residual enzyme activity)” value (full kinase panel [2]) was “◯ (residual enzyme activity values were 40% or less, i.e., inhibited by 60% or more)”. For the same compound, the “kinase inhibition (residual enzyme activity)” value (full kinase panel [3]) was “◯ (residual enzyme activity values were 40% or less, i.e., inhibited by 60% or more)”, the “kinase inhibition (residual enzyme activity)” value (full kinase panel [4]) was “◯ (residual enzyme activity values were 40% or less, i.e., inhibited by 60% or more)” and the “kinase inhibition (residual enzyme activity)” value (full kinase panel [5]) was “◯ (residual enzyme activity values were 40% or less, i.e., inhibited by 60% or more)”. The “kinase inhibition (residual enzyme activity)” value (full kinase panel [6]) was “◯ (residual enzyme activity values were 40% or less, i.e., inhibited by 60% or more)”, the “kinase inhibition (residual enzyme activity)” value (full kinase panel [7]) was “◯ (residual enzyme activity values were 40% or less, i.e., inhibited by 60% or more)” and the “kinase inhibition (residual enzyme activity)” value (full kinase panel [8]) was “◯ (residual enzyme activity values were 40% or less, i.e., inhibited by 60% or more)”. The “kinase inhibition (residual enzyme activity)” value (full kinase panel [9]) was “◯ (residual enzyme activity values were 40% or less, i.e., inhibited by 60% or more)”, the “kinase inhibition (residual enzyme activity)” value (full kinase panel [10]) was “◯ (residual enzyme activity values were 40% or less, i.e., inhibited by 60% or more)” and the “kinase inhibition (residual enzyme activity)” value (full kinase panel [11]) was “◯ (residual enzyme activity values were 40% or less, i.e., inhibited by 60% or more)”. The “kinase inhibition (residual enzyme activity)” value (full kinase panel [12]) was “◯ (residual enzyme activity values were 40% or less, i.e., inhibited by 60% or more)”, the “kinase inhibition (residual enzyme activity)” value (full kinase panel [13]) was “◯ (residual enzyme activity values were 40% or less, i.e., inhibited by 60% or more)” and the “kinase inhibition (residual enzyme activity)” value (full kinase panel [14]) was “◯ (residual enzyme activity values were 40% or less, i.e., inhibited by 60% or more)”. For the same compound, the “kinase inhibition (residual enzyme activity)” value (full kinase panel [15]) was “◯ (residual enzyme activity values were 40% or less, i.e., inhibited by 60% or more)”, the “kinase inhibition (residual enzyme activity)” value (full kinase panel [16]) was “◯ (residual enzyme activity values were 40% or less, i.e., inhibited by 60% or more)” and the “kinase inhibition (residual enzyme activity)” value (full kinase panel [17]) was “◯ (residual enzyme activity values were 40% or less, i.e., inhibited by 60% or more)”. The “kinase inhibition (residual enzyme activity)” value (full kinase panel [18]) was “◯ (residual enzyme activity values were 40% or less, i.e., inhibited by 60% or more)”, the “kinase inhibition (residual enzyme activity)” value (full kinase panel [19]) was “◯ (residual enzyme activity values were 40% or less, i.e., inhibited by 60% or more)” and the “kinase inhibition (residual enzyme activity)” value (full kinase panel [20]) was “◯ (residual enzyme activity values were 40% or less, i.e., inhibited by 60% or more)”. The “kinase inhibition (residual enzyme activity)” value (full kinase panel [21]) was “◯ (residual enzyme activity values were 40% or less, i.e., inhibited by 60% or more)”, the “kinase inhibition (residual enzyme activity)” value (full kinase panel [22]) was “◯ (residual enzyme activity values were 40% or less, i.e., inhibited by 60% or more)” and the “kinase inhibited by 60% or more” value (PYK2) was “◯ (residual enzyme activity values were 40% or less, i.e., inhibited by 60% or more)”. The “kinase inhibited by 60% or more” value (RAF1) was “◯ (residual enzyme activity values were 40% or less, i.e., inhibited by 60% or more)”.
